Test results from paper PMC8071183 (International Journal of Molecular Sciences, 2021).

Sequences of proteins named here, by UniProt entry; tags and fusion partners are left off. Residues count along the entry.
UniProt P14416, 1-414 isoform P14416-2 S193A: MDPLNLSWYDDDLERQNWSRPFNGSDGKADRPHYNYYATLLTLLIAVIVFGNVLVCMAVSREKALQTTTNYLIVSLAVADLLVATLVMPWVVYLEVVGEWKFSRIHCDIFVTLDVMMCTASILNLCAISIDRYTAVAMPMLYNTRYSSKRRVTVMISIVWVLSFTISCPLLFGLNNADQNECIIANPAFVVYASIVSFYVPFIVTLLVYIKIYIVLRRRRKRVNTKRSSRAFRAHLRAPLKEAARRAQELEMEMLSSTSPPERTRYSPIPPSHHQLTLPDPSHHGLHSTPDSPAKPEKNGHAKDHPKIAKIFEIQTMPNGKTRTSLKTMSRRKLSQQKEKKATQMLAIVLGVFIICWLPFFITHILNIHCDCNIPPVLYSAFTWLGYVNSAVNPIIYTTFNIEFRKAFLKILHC
UniProt P14416, 1-414 isoform P14416-2: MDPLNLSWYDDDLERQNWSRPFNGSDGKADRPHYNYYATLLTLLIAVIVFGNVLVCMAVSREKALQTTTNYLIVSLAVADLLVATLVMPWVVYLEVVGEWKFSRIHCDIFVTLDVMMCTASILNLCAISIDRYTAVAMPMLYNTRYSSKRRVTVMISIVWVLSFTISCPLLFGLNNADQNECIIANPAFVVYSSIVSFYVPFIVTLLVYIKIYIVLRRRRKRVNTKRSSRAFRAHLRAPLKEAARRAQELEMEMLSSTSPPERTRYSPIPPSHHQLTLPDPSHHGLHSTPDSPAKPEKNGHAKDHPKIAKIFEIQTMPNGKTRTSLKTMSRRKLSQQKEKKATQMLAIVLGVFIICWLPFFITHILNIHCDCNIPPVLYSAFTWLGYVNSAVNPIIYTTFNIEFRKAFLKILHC

Columns and labels:
[1] = molecular target: T1, D2R S193^5.42A (human dopamine D2S receptor mutant) (Homo sapiens, UniProt P14416, S193A); test: cell-based
[2] = molecular target: T2, WT D2R (human dopamine D2S receptor) (Homo sapiens, UniProt P14416); test: GIRK current activation rate (kobs) vs agonist concentration (kon estimate), WT D2R; type: cell-based
[3] = molecular target: T2, WT D2R (human dopamine D2S receptor); test: cell-based; details: GIRK activation, perfusion 1 mL/min
[4] = molecular target: T1, D2R S193^5.42A (human dopamine D2S receptor mutant); test: cell-based; remark: listed apart in the source

SMILES | EC50 [1] [nM] | Kd [2] [nM] | EC50 ([3]; EC50, WT D2R) [nM] | Kd [4] [nM] | EC50 ([3]; pEC50 ± SEM, WT D2R) [nM]
CCCN(CCC)[C@@H]1CCc2c(O)cccc2C1 [(R)-5-OH-DPAT, (R)-5-OH-dipropylaminotetralin] | 85 | 34.7 | 141 | 35.5 | 
CCCN(CCC)[C@H]1CCc2c(O)cccc2C1 [(S)-5-OH-DPAT, (S)-5-OH-dipropylaminotetralin] | 275 | 0.977 | 5 | 33.9 | 5.25
